Results reported in ChEMBL document CHEMBL1154195, “Synthesis and binding affinity of potential atypical antipsychotics with the tetrahydroquinazolinone motif” (Bioorg Med Chem Lett, 2009).

The chains behind the UniProt entries cited, without tags or fusion partners.
UniProt P21728, whole entry: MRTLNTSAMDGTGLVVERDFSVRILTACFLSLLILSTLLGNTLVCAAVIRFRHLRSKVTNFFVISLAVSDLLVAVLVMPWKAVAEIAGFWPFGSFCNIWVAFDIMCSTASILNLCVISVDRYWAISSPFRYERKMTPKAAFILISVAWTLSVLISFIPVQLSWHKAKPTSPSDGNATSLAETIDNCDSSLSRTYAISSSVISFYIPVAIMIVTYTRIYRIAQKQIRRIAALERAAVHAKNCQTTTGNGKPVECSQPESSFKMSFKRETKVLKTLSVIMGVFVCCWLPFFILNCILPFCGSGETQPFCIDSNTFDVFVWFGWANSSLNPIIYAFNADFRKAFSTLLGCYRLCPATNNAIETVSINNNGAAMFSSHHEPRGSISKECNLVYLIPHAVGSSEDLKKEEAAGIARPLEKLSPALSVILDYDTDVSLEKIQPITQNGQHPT

Experiments:
[1] = molecular target: D(1A) dopamine receptor (Homo sapiens, UniProt P21728)
[2] = organism: Homo sapiens; experiment: Ratio of pKi for human cloned 5HT2A receptor to pKi for human cloned dopamine D2 receptor

Ki [1]: 33.1 nM
Ratio pKi [2]: 1.11
Structure (SMILES): CSc1ncc2c(n1)CC(CN1CCC(c3noc4cc(F)ccc34)CC1)CC2=O (configuration not stated)
